Experimental findings from PubChem BioAssay AID276 (DTP/NCI, 2004) are described below.

For this test, the system named is B6C3F1 mice, Lewis lung carcinoma iv, survival T/C. The test is described as follows: NCI In Vivo Anticancer Drug Screen. Data for tumor model Lewis Lung Carcinoma (intravenous) in B6C3F1 mice. As to conditions: endpoint: median survival time; dose: 25.0 mg/kg/injection; schedule: Q01DX009 (ip); vehicle: dextrose; higher = longer survival. The method, then: The antitumor activity of compounds was measured in mice bearing transplantable tumors. Survival or tumor size were measured and the results are expressed as the measurement made in the treated group (T) divided by the measurement made in the vehicle treated control group (C). The tumor model used in this assay is Lewis Lung Carcinoma (intravenous) in B6C3F1 mice

Structures are written as SMILES. Toxic doses and inconclusive results are not listed.

For `O=C(O)CC(=O)O.[NH-]CC[NH-].[Pt+2]`, the T/C was 156 % of control.
